Ab-14 light chain CDR variants: yeast mating affinities

Target: peptide PDVDLGDISGINAS, taken from heptad repeat 2 (HR2) of SARS-CoV-2 spike.

Parent scFv Ab-14: VH joined to VL by the linker GGGGSGGGGSGGGGS. Changes lie in the light chain CDRs alone.
VH: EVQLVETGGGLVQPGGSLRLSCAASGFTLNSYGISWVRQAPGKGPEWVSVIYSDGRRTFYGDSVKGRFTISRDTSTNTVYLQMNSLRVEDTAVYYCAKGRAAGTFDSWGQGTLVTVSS
VL: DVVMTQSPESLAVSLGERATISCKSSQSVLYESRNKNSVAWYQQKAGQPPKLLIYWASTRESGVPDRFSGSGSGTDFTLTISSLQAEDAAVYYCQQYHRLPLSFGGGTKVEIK

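The parent was found by panning a naive human phage display library on the peptide. Designed CDR sequences, proposed from the first random library and measured here. Several design methods are mixed in this list. Affinity was read by AlphaSeq, a pooled yeast mating assay with surface-displayed partners. After mating in shaken culture at 30 °C for 16 h, diploids were selected and their barcode pairs sequenced. A regression on co-assayed BCL2-family reference pairs converts the normalised counts of each replicate to an apparent Kd. Mating was done six times.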

The parent's light chain CDRs are KSSQSVLYESRNKNSVA, WASTRES, QQYHRLPLS; each variant's own CDRs replace them letter for letter. Values are log10 of the apparent Kd in nM; lower means stronger binding. Averages over replicates are reported, and they cover detected replicates only. "no signal" marks a missing value. The strain was present, yet no cells mated with the target were sequenced in any replicate, which points to weak or no binding. The parent sequence was in this pool as ten entries: three were never detected, three once, and four in most replicates, with averages from 0.34 to 2.37. The range of this assay differs from that of the first round, and the authors advise against merging the two. Three control strains display no target. For all light chain designs, 4% of the pairings with them gave a signal, with a median of 2.64 and one signal in twenty below 1.59, so weak values seen in few replicates may be background. The authors' rule: three or more of the six replicates give a measured affinity, fewer mean a poor binder.

CDR-L1 | CDR-L2 | CDR-L3 | mean log10 Kd (nM) | replicates with signal
IVSQLMLWGYHAKNSIA | EAETRPN | QQYDRLPLE | no signal | 0/6
RIDAYPPMQGNNIDSIA | ENAITLD | QQYANLPLS | no signal | 0/6
QLLMATMQGSYNRNSVA | HAQTRND | QSYHRLPLS | 1.81 | 6/6
KQSQSDLYESRNKNSVA | EASTRES | QQYHRLPLS | 0.30 | 6/6
MISESVMYESRNKNSVA | DNSTRED | QCYDRLPLS | no signal | 0/6
KSSQSVLYESNNKNSVA | WASTREV | QQYSRLPLS | 1.30 | 6/6
KCSQSVWQESRNKNSVA | NASQRER | QQYHRLPLS | 0.47 | 6/6
KVMGEMLYESRNKNSVA | HASERES | QQYHRLPLQ | 1.38 | 6/6
KLQTLTYFENIGESSVA | DVNTHVD | QQYFRLPLS | 1.19 | 6/6
KLSQSQLYESRMKNNVA | NASQRES | QQYHRLPLS | -0.05 | 6/6
NLSQSELYESRNKNSVA | GGNTRES | QQYHRLPLS | 0.41 | 6/6
KLSPSQLYWSRNFNAVA | QASTRET | QQYHRLPLS | 0.88 | 6/6
TLTQVQGMETHNKDNVA | DLSTRGS | QQYHRLPLS | 0.16 | 6/6
RLSQSVLQEERNDNSVA | NASTRCS | QQYHRLPLS | 0.77 | 6/6
KLVQFMNRGTHHTSNIA | DAALRED | QQYHRLPLA | no signal | 0/6
KSSGSVLYEDKNVNSVA | DASQRCS | QQYHRLPLS | 0.38 | 6/6
KSSQSVLYESANKNSVA | EASQRES | QQYHRLPLS | 0.87 | 6/6
KLSQSVLYESRNKNSVA | NASTRES | QAYHRLPLS | 0.36 | 6/6
KSSQSVLYISRDGNSVA | WASTREH | QQPHRLPLC | no signal | 0/6
KWQKDSLGQEQYQNNIA | NQDLRTA | QQYYMLPLT | 0.65 | 6/6
KVSQQGLYGQRNANSVA | NASTRED | QQYHRLPLS | 0.44 | 6/6
KLSQSVLYEERNKNSVA | HASQRES | QQYHRLPLS | -0.40 | 6/6
MMKQSIEGNPLNTNNIA | DADSVTE | QQYARLPLF | -0.08 | 6/6
SFPSEMDQQQEQVNSIA | GEQHTAR | QQYGRLPLS | 1.55 | 6/6
MISQLMNMGQFAINSVA | QAEERYN | QQYDRLPLM | 2.45 | 3/6
KSSQSFLYESRNVNSVA | AASTRES | QQYHRLPLS | 0.09 | 6/6
KLSQSVGYESRNKNSVA | EASTREE | QQYHRLPLS | -0.11 | 6/6
HMKDELGLGPQTYHSVA | HASILEP | QQYYRLPLG | 1.59 | 6/6
KSSQSVLYESRNKNSVA | NASTRES | PQYHRLPLS | 0.37 | 6/6
KSSISYLYESRNCNSVA | EASTREQ | QQYHRLPLS | 1.12 | 6/6
KSSGSWLYESRNKNSVA | GASTREN | QQYHRLPLS | -0.25 | 6/6
KQSQSELCESRNKNSVA | DASTRES | QQYHRLPLS | 0.31 | 6/6

Second part, the sequence after the result:

mean log10 Kd (nM) | replicates with signal | CDR-L1 | CDR-L2 | CDR-L3
0.06 | 6/6 | KLGGVTEYEMRNKNSVA | QMTTREQ | QQYHRLPLS
1.75 | 6/6 | KMSQSVLYESRNKNSVA | QASTRES | QQYHRLPLS
2.38 | 5/6 | KLQQSVMFMSGVYNSVA | QMSTRAE | QCYHRLPLS
0.72 | 3/6 | KFSDSVLEESRNKNSVA | WASTRES | QQYMRLPLS
1.12 | 6/6 | KQSQEVDFESRNKNSVA | DASTRES | QQYHRLPLS
1.58 | 6/6 | VLSDTIENWADEADNIA | DATETSK | QQYYRLPLS
-0.11 | 6/6 | KISQSDLYESRNKNSVA | HASTRES | QQYHRLPLS
-0.22 | 6/6 | KHSQSVLYESRNKNSVA | DASTRES | QQYHRLPLS
-0.22 | 6/6 | KSSISYLYESRNKNSVA | EASTRED | QQYHRLPLM
0.39 | 6/6 | SLMQSVLYESRNKNSVA | HASLRED | QQYHRLPLS
-0.14 | 6/6 | KIQQSVWMESRNVNNVA | NASTRED | QQYHRLPLS
0.50 | 6/6 | KLYASTMLESHNKNSIA | DLSTRGN | QQYHRLPLS
-0.38 | 6/6 | KLQQSVGYESRNKNAVA | EGSQRES | QQYHRLPLS
1.53 | 6/6 | TISGVMQNMSHSKNNVA | EVSMRFD | QQYFRLPLE
0.13 | 6/6 | KLGAVTSYEMQNKNSVA | QMTTRES | QQYHRLPLS
-0.11 | 6/6 | KLPQSMLYESRNKNSVA | QASTRES | QQYHRLPLT
0.91 | 6/6 | NLVGRVEDNQTERNAIA | DMHCRAG | QQYSRLPLS
1.33 | 6/6 | MSYGGDMLESVTRNSVA | NAETREE | QDYHRLPLS
0.58 | 6/6 | SISGFMKSLSAHINSVA | DMTNREN | QQYERLPLS
0.64 | 6/6 | KLYVSTMLEEHNKNSIA | DLSTRGN | QQYHRLPLS
0.07 | 6/6 | KSSQSVLYEQRNKNSVA | DASTRES | QQYHRLPLS
-0.18 | 6/6 | KVPQSNLYEARNANNVA | NASTRLS | QQYHRLPLS
-0.17 | 6/6 | KLSASELYESRNKNSVA | EASTRES | QQYHRLPLS
0.85 | 6/6 | KLQNFSQEHNGMWNSIA | DMTMKHT | QHYNRLPLV
-0.37 | 6/6 | KFEQSWLYESRNVNSVA | NASTRSQ | QQYHRLPLS
0.36 | 6/6 | KSSISELGESRNKNSVA | EASTRES | QQYHRLPLS
0.10 | 6/6 | ILSQSVLMGMHLKNSVA | QASTRFQ | QQYHRLPLM
-0.48 | 6/6 | IISQSFLGEYHNKNSVA | QTSERGQ | QQYDRLPLS
0.93 | 6/6 | HISPMQAMHYEAKNQVA | ETEVKYN | QQYIRLPLS
0.74 | 6/6 | TISQLMNMGQFAINSVA | QAEMRNA | QQYDRLPLI
2.21 | 4/6 | KASESDLYESRNKNSVA | WASWRES | QQYFRLPLS
1.60 | 6/6 | KLQQGYWYESRNKNSVA | MASTREV | QQYWRLPLS
1.09 | 6/6 | MFSQLTYTGSRARNAVA | QASTREN | QQYHHLPLT

Excerpt, the final 4 entries:

CDR-L1 | CDR-L2 | CDR-L3 | mean log10 Kd (nM) | replicates with signal
TISQLMNMGQFAINSVA | QAEMRNA | QQYDRLPLI | 0.74 | 6/6
KASESDLYESRNKNSVA | WASWRES | QQYFRLPLS | 2.21 | 4/6
KLQQGYWYESRNKNSVA | MASTREV | QQYWRLPLS | 1.60 | 6/6
MFSQLTYTGSRARNAVA | QASTREN | QQYHHLPLT | 1.09 | 6/6

From the AlphaSeq antibody data of Li et al. 2023 (doi:10.1038/s41467-023-39022-2), copy in the FLAb collection.